Biological target: T1, Polyunsaturated fatty acid lipoxygenase ALOX12 (Homo sapiens, UniProt P18054)
T1 sequence (P18054 whole entry): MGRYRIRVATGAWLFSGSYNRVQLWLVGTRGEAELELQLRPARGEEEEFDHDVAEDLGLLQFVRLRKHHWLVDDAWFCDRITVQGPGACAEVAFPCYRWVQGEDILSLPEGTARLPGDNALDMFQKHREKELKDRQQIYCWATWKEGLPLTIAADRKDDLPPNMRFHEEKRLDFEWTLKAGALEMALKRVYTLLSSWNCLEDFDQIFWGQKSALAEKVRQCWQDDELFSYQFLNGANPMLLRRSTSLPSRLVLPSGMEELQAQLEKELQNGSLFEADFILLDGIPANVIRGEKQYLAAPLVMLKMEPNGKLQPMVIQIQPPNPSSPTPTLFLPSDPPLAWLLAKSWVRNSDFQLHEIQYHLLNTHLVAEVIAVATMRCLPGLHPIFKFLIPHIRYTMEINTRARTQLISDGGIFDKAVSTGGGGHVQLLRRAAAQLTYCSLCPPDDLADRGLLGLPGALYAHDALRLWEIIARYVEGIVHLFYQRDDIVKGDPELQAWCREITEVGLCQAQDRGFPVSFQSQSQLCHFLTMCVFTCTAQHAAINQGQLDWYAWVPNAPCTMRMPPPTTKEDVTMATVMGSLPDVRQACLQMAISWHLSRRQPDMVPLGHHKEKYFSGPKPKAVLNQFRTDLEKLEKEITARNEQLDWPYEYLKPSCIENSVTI
Assay: Inhibition of 12-LOX

- IC50: 100 µM
Structure (SMILES): CC(C)=CCc1c(-c2ccc(O)cc2O)oc2c3c(cc(O)c2c1=O)OC(C)(C)C=C3 [MORUSIN]
